Test results as given in US20100008912A1, “COMBINATION DRUG” (TAKEDA PHARMACEUTICAL COMPANY LIMITED, priority 2006, published 2010).
Structures can show the parent of a compound that is named as a salt.

Tested on: N87 (gastric cancer)
Test: Cell growth determination test of combined use, Combination Index, N87
Assay type: cell-based, human
Details: combined use with compound A
Protocol: The cell density of the cell suspension was measured by cell counter Sysmex CDA500, and the cell density was adjusted to 4×10^4 cell/mL using the aforementioned medium, which was dispensed to each well of a 96 well multi-well culture plate (Nunc) by 0.15 mL and cultured overnight at 37° C., 5% CO2. […] After culturing at 37° C., 5% CO2 for 5 days, the cells of each well were fixed, stained and subjected to colorimetry. The effect of the combined use was determined by the method of Chou T C, Talalay P Adv.
The effect of combined use was determined by the method of Chou T C, Talalay P Adv.

COc1cccc2c1C(=O)c1c(O)c3c(c(O)c1C2=O)C[C@@](O)(C(=O)CO)C[C@@H]3O[C@H]1C[C@H](N)[C@H](O)[C@H](C)O1 [doxorubicin hydrochloride]
Combination Index at the time of inhibition of cell growth by 50%: 1.01
